Protein sequences, listed by entry. Tags and fused reporters are not part of them. Chains listed by the source or under a name are the forms on record and can include a tag or linker.
UniProt Q06481, other isoform, or with tags, fused parts or gaps: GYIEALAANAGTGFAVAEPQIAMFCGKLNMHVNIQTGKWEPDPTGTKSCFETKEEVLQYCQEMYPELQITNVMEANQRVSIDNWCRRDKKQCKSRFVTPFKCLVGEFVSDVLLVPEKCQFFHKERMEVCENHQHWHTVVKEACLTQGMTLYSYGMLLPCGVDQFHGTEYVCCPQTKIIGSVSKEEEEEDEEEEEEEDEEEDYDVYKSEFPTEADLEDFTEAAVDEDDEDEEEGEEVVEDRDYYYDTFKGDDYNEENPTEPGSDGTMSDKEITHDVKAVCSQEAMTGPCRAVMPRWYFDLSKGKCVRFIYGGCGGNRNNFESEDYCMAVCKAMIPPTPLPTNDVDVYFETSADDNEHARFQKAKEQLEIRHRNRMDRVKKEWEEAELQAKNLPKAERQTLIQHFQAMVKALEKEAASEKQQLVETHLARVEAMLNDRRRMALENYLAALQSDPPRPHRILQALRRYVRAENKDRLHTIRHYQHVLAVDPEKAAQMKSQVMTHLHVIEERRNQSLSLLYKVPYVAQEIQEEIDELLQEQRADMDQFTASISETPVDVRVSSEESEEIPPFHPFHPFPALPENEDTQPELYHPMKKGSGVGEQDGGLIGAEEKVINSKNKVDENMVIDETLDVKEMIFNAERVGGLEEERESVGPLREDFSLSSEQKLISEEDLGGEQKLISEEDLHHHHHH

In patent US20210246224A1 (Regeneron, published 2021):

Columns and labels:
[1] = target: T1, human HER2 extracellular domain expressed with a C-terminal myc-myc-hexahistidine tag (human, UniProt P04626 23-652); experiment: SPR (Biacore 4000), antibody captured on anti-human Fc, hHER2-MMH injected, 37 C
T1 construct: also called hHER2-MMH; HER2.mmh
Method: (§1) Equilibrium dissociation constants (KD values) for HER2 and APLP2 binding to purified anti-HER2xAPLP2 bispecific and parental antibodies were determined using a real-time surface plasmon resonance biosensor using a Biacore 4000 instrument. The Biacore sensor surface was first derivatized by amine coupling with a monoclonal mouse anti-human Fc antibody (GE, Cat #BR-1008-39) to capture anti-HER2xAPLP2 bispecific monoclonal antibodies. […] Kinetic association rate constant (ka) and dissociation rate constant (kd) were determined by fitting the real-time sensorgrams to a 1:1 binding model using Scrubber 2.0c curve fitting software. Binding dissociation equilibrium constants (KD) and dissociative half-lives (t1/2) were calculated from the kinetic rate constants as: […]

[2] = target: T2, human APLP2 extracellular domain expressed with a C-terminal myc-myc-hexahistidine tag (human, UniProt Q06481 32-692); experiment: SPR (Biacore 4000), antibody captured on anti-human Fc, hAPLP2-MMH injected, 37 C
T2 construct: also called hAPLP2-MMH; APLP2.mmh
Method: as §1

[3] = target: T2, human APLP2 extracellular domain …; experiment: SPR, antibody captured, hAPLP2-MMH injected, 25 C
[4] = target: T3, human HER2 expressed on cells (cancer cell lines and normal primary cultures) (human, UniProt P04626 23-1255); experiment: imaging, Alexa647-labelled antibody on MDA-MB-361 cells at 4 C; competitor hHER2-MMH
T3 construct: Endogenous HER2 of the cell lines; the same cells also express APLP2; also called human epidermal growth factor receptor 2
Method: (§2) For the assay, cells were plated on collagen-coated, black wall, 96-well, optical plates (Greiner, Cat #655936) at 2.5×10⁵ cells per well in their appropriate culture media (described in previous examples), and incubated overnight at 37° C. in 5% CO₂. The next day, the cells were placed in refrigeration at 4° C. for 30 minutes. […] To each antibody solution, either PBS alone, human HER2 extracellular domain expressed with a C-terminal myc-myc-hexahistidine tag (hHER2-MMH; SEQ ID NO: 53) alone, human APLP2 extracellular domain expressed with a C-terminal myc-myc-hexahistidine tag (hAPLP2-MMH; SEQ ID NO: 54) alone, or the combination of hHER2-MMH and hAPLP2-MMH was added at a concentration of […]. After incubation, and removal of culture media, 50 μL/well of the bispecific antibody and soluble protein solutions were added to the cells for 30 minutes at 4° C. The cells were subsequently washed with 150 μL/well of DMEM containing 10% FBS at 4° C. for 10 minutes. […] The fixing buffer was then removed, 100 uL of DPBS/CM was added and allowed to incubate for approximately 20 minutes at room temperature prior to image acquisition. Binding of the bispecific antibodies to each of the cell types was measured using an Image Xpress^Micro automatic microscope (Molecular Devices). Data acquired was analyzed using MetaXpress software (Molecular Devices). […]

[5] = target: T3, human HER2 expressed on cells (cancer …); experiment: imaging, Alexa647-labelled antibody on MDA-MB-361 cells at 4 C; competitors hHER2-MMH + hAPLP2-MMH
Method: as §2

[6] = target: T3, human HER2 expressed on cells (cancer …); experiment: imaging, Alexa647-labelled antibody on MDA-MB-361 cells at 4 C; competitor hAPLP2-MMH
Method: as §2

[7] = target: T3, human HER2 expressed on cells (cancer …); experiment: imaging, Alexa647-labelled antibody on MDA-MB-361 cells at 4 C; No Block
Method: as §2

[8] = target: T2, human APLP2 extracellular domain …; experiment: SPR, antibody captured, hAPLP2-MMH injected, 25 C (second row for this antibody)

Row | Binder | Kd [1] [nM] | koff [2] [s⁻¹] | kon [2] [M⁻¹ s⁻¹] | koff [3] [s⁻¹] | kon [3] [M⁻¹ s⁻¹] | koff [1] [s⁻¹] | kon [1] [M⁻¹ s⁻¹] | Bispecific antibody signal (Fold over blank) [4] [fold over blank] | Bispecific antibody signal (Fold over blank) [5] [fold over blank] | Bispecific antibody signal (Fold over blank) [6] [fold over blank] | t½ [1] [min] | Bispecific antibody signal (Fold over blank) [7] [fold over blank] | koff [8] [s⁻¹] | kon [8] [M⁻¹ s⁻¹]
1 | H4H25021D (bispecific antibody, IgG4, V domains shown, Wild-type kappa CL and a modified (chimeric) IgG4 CH domain as set forth in US20140243504A1; also called bispecific anti-HER2xAPLP2 antibody) VH 1: QVQLVQSGPEVKKPGASVKVSCKASGYTFPNFGISWVRQAPGQGLEWMGWIAPYNVATNYAPKLQGRVTMTTDTSTSTAYMELRSLRSDDTAVYYCARWGAGYMGYYYYGMDVWGQGTTVTVSS VH 2: QVQLVQSGVEVKKPGASVKVSCKASGYTFTDYGISWVRQAPGQGLEWMGWISAHNGNTNYAQKLQGRVTMTTDTSTNTAYMELRSLRSDDTAVYYCARRNWKYFDYWGQGTLVTVSS VL: not shown |  | 0.28 | 287000 |  |  |  |  |  |  |  |  |  |  | 
2 | H4H25014D (bispecific antibody, IgG4, V domains shown, Wild-type kappa CL and a modified (chimeric) IgG4 CH domain as set forth in US20140243504A1; also called bispecific anti-HER2xAPLP2 antibody) VH 1: QVQLQESGPGLVKPSQTLSLTCTVSGGSISSGHYFWSWIRQHPGKGLEWIGYIFYSGSTHYNPSLKSRLSISVDTSKNQFSLRLTSVTAADTAVYYCAREEGDYNFWDVDYVPGHFDYWGQGTLVTVSS VH 2: EVQLVESGGGLVQPGGSLRLSCAASGFTFSTYVMSWVRQAPGKGPEWVSGISGRTGTTYYADSVKGRFTISRDNSKNTLYLQMNSLRAEDTAVYYCASRITAAGRGYYYYYGMDVWGRGTTVTVSS VL: not shown |  | 0.0104 | 44400 | 0.000946 | 94800 | 0.000731 | 217000 |  |  |  |  |  |  | 

Next, values leading:

Row | Kd [1] [nM] | koff [2] [s⁻¹] | kon [2] [M⁻¹ s⁻¹] | koff [3] [s⁻¹] | kon [3] [M⁻¹ s⁻¹] | koff [1] [s⁻¹] | kon [1] [M⁻¹ s⁻¹] | Bispecific antibody signal (Fold over blank) [4] [fold over blank] | Bispecific antibody signal (Fold over blank) [5] [fold over blank] | Bispecific antibody signal (Fold over blank) [6] [fold over blank] | t½ [1] [min] | Bispecific antibody signal (Fold over blank) [7] [fold over blank] | koff [8] [s⁻¹] | kon [8] [M⁻¹ s⁻¹] | Binder
3 | 5.15 |  |  |  |  |  |  |  |  |  |  |  |  |  | H4H25019D (bispecific antibody, IgG4, V domains shown, Wild-type kappa CL and a modified (chimeric) IgG4 CH domain as set forth in US20140243504A1; also called bispecific anti-HER2xAPLP2 antibody) VH 1: QVQLVQSGPEVKKPGASVKVSCKASGYTFPNFGISWVRQAPGQGLEWMGWIAPYNVATNYAPKLQGRVTMTTDTSTSTAYMELRSLRSDDTAVYYCARWGAGYMGYYYYGMDVWGQGTTVTVSS VH 2: EVQLVESGGGLVQPGRSLRLSCVASGFTFADYAMHWVRQAPGKGLEWVSGISWNSGNIDYADSVKGRFTISRDNAKNSLYLQMNSLRTEDTALYYCAKVRIVVAGYYYYYYGMDVWGQGTTVTVSS VL: not shown
4 |  | 0.336 | 398000 |  |  | 0.000919 | 219000 | 6 | 7 | 16 | 13 | 15 |  |  | H4H25020D (bispecific antibody, IgG4, V domains shown, Wild-type kappa CL and a modified (chimeric) IgG4 CH domain as set forth in US20140243504A1; also called bispecific anti-HER2xAPLP2 antibody) VH 1: QVQLQESGPGLVKPSQTLSLTCTVSGGSISSGHYFWSWIRQHPGKGLEWIGYIFYSGSTHYNPSLKSRLSISVDTSKNQFSLRLTSVTAADTAVYYCAREEGDYNFWDVDYVPGHFDYWGQGTLVTVSS VH 2: QVQLVQSGVEVKKPGASVKVSCKASGYTFTDYGISWVRQAPGQGLEWMGWISAHNGNTNYAQKLQGRVTMTTDTSTNTAYMELRSLRSDDTAVYYCARRNWKYFDYWGQGTLVTVSS VL: not shown
5 |  | 0.00941 | 65000 | 0.00171 | 110000 | 0.000895 | 213000 | 5 | 5 | 14 | 13 | 14 | 0.0015 | 90300 | H4H25018D (bispecific antibody, IgG4, V domains shown, Wild-type kappa CL and a modified (chimeric) IgG4 CH domain as set forth in US20140243504A1; also called bispecific anti-HER2xAPLP2 antibody) VH 1: QVQLQESGPGLVKPSQTLSLTCTVSGGSISSGHYFWSWIRQHPGKGLEWIGYIFYSGSTHYNPSLKSRLSISVDTSKNQFSLRLTSVTAADTAVYYCAREEGDYNFWDVDYVPGHFDYWGQGTLVTVSS VH 2: EVQLVESGGGLVQPGRSLRLSCVASGFTFADYAMHWVRQAPGKGLEWVSGISWNSGNIDYADSVKGRFTISRDNAKNSLYLQMNSLRTEDTALYYCAKVRIVVAGYYYYYYGMDVWGQGTTVTVSS VL: not shown
